Experiment: Preselected phage libraries, rat closed loop: uptake into portal and systemic circulation (oligonucleotide hybridization autoradiograph)
Format: in vivo
Details: for transport from the closed loop model into the portal circulation: hSI pool of phages; for transport from the GIT closed loop model into the portal circulation: D2H pool of phages
[1] = HPT1 pool of phages, PAX2 at 4x concentration

RGAADQRRGWSENLGLPRVGWDAIAHNSYTFTSRRPRPP [Phage SNi38]
transport from the closed loop model into the portal circulation: transported

RGSTGTAGGERSGVLNLHTRDNASGSGFKPWYPSNRGHK [Peptide 5PAX5]
found in the portal circulation (hPEPT1 pool of phages): not found in the portal blood | found in the systemic circulation (hPEPT1 pool of phages): found in the systemic circulation

RTTTAKGCLLGSFGVLSGCSFTPTSPPPHLGYPPHSVN [Phage SNiAX6]
transport from the closed loop model into the portal circulation: not transported

RVGQCTDSDVRRPWARSCAHQGCGAGTRNSHGCITRPLRQASAH [Phage SNi10]
transport from the closed loop model into the portal circulation: transported

RYKHDIGCDAGVDKKSSSVRGGCGAHSSPPRAGRGPRGTMVSRL [DCX8]
transport from the GIT closed loop model into the portal circulation: transported

SARDSGPAEDGSRAVRLNGVENANTRKSSRSNPRGRRHP [Peptide P31]
found in the portal circulation (hPEPT1 pool of phages): found in the portal circulation | found in the systemic circulation (hPEPT1 pool of phages): found in the systemic circulation

SDHALGTNLRSDNAKEPGDYNCCGNGNSTGRKVFNRRRPSAIPT [HAX42]
found in the systemic circulation (HPT1 pool of phages): found in the portal and systemic circulation | found in the portal circulation [1]: found in the portal and systemic circulation

SDSDGDHYGLRGGVRCSLRDRGCGLALSTVHAGPPSFYPKLSSP [Phage SNiAX2]
transport from the closed loop model into the portal circulation: not transported

SGGEVSSWGRVNDLCARVSWTGCGTARSARTDNKGFLPKHSSLR [Phage SNi45]
transport from the closed loop model into the portal circulation: not transported

SHSGGMNRAYGDVFRELRDRWNATSHHTRPTPQLPRGPN [Phage SNi28]
transport from the closed loop model into the portal circulation: not transported

SPCGGSWGRFMQGGLFGGRTDGCGAHRNRTSASLEPPSSDY [Phage SNi34]
transport from the closed loop model into the portal circulation: transported

SPKLSSVGVMTKVTELPTEGPNAISIPISATLGPRNPLR [Phage SNiAX8]
transport from the closed loop model into the portal circulation: not transported

SQGSKQCMQYRTGRLTVGSEYGCGMNPARHATPAYPARLLPRYR [DCX11]
transport from the GIT closed loop model into the portal circulation: preferably transported

STPPSREAYSRPYSVDSDSDTNAKHSSHNRRLRTRSRPN [PAX2]
found in the systemic circulation (HPT1 pool of phages): found in the portal and systemic circulation | found in the portal circulation [1]: found in the portal and systemic circulation | found in the portal circulation (hPEPT1 pool of phages): found in the portal circulation

Source: patent US6703362B1, “Random peptides that bind to gastro-intestinal tract (GIT) transport receptors and related methods” (Cytogen Corporation, priority 1997, dated 2004)
